The experiment addresses 5-hydroxytryptamine receptor 1A (Homo sapiens, UniProt P08908).

Amino acid sequences for entries named in this document (tags omitted).
UniProt P08908, whole entry: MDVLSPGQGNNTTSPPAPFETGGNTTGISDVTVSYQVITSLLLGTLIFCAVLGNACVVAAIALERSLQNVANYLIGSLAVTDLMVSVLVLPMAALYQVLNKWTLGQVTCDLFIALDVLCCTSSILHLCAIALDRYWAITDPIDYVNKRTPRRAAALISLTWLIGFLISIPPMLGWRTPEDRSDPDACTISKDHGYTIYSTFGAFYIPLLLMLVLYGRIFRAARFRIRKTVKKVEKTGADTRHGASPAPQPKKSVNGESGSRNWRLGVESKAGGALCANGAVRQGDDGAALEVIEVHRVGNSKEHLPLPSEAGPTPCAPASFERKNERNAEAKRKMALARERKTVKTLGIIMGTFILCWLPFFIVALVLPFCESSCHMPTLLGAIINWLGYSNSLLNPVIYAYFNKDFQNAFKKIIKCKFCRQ

Broadly, the Ki is a measure of affinity in units of concentration, obtained from inhibition or displacement. Lower therefore signals a stronger hold on the target. On to `CNS(=O)(=O)Cc1ccc2[nH]cc(CCN(C)C)c2c1` [Sumax], for which the affinity, expressed as Ki, was 255 nM. In other words, the sub-micromolar range.
